Laboratory results as given in PMC4225172.

Biological target: recombinant biotinylated BoLA-6*01301 (HD6) MHC-I heavy chain (cattle (Holstein))
Assay: radioligand binding

IC50: 2.5 nM
Substance: recombinant human β2m (from UniProt P61769 21-119) (natural protein)
